Experimental data reported in patent US20080020973A1 (priority 2004, published 2008).

Protein sequences, listed by entry. Tags and fused reporters are not part of them. Lines headed by an entry give the natural chain unless they say otherwise; changes in a name come on top.
UniProt P11387: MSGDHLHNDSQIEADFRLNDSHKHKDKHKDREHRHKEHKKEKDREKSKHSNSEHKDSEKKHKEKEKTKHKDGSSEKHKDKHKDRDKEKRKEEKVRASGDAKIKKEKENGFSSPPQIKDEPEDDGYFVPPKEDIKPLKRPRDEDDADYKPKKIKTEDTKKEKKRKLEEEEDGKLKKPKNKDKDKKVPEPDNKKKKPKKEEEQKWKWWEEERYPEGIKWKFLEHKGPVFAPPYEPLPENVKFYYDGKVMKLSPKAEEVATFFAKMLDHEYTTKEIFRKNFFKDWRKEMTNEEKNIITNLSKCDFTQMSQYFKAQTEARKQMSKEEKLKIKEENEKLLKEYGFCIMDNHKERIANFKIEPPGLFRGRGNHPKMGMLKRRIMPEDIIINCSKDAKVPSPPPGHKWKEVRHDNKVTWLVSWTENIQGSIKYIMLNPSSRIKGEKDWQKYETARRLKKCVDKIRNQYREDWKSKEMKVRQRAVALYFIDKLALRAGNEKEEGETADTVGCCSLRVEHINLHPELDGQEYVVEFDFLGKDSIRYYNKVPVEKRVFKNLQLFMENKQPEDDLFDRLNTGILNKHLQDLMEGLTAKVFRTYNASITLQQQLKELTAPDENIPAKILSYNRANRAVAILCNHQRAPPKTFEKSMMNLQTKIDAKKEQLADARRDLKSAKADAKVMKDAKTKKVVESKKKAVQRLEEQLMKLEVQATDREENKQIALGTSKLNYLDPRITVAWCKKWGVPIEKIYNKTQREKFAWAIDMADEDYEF

Biological target: human topoisomerase type IB (hTopo) (Homo sapiens, UniProt P11387)
Assay: Plasmid supercoil relaxation (SC release) assay, hTopo
Type: biochemical
Settings: @ 20 μM

SMILES: O=[As](O)(O)c1ccc(-c2cccc([As](=O)(O)O)c2)cc1
- % Inhibition (plasmid SC release assay): 50% @ 20 μM
